The chains behind the UniProt entries cited, without tags or fusion partners. Residues count along the entry.
UniProt P06756, 31-1048, chain 1 of 2: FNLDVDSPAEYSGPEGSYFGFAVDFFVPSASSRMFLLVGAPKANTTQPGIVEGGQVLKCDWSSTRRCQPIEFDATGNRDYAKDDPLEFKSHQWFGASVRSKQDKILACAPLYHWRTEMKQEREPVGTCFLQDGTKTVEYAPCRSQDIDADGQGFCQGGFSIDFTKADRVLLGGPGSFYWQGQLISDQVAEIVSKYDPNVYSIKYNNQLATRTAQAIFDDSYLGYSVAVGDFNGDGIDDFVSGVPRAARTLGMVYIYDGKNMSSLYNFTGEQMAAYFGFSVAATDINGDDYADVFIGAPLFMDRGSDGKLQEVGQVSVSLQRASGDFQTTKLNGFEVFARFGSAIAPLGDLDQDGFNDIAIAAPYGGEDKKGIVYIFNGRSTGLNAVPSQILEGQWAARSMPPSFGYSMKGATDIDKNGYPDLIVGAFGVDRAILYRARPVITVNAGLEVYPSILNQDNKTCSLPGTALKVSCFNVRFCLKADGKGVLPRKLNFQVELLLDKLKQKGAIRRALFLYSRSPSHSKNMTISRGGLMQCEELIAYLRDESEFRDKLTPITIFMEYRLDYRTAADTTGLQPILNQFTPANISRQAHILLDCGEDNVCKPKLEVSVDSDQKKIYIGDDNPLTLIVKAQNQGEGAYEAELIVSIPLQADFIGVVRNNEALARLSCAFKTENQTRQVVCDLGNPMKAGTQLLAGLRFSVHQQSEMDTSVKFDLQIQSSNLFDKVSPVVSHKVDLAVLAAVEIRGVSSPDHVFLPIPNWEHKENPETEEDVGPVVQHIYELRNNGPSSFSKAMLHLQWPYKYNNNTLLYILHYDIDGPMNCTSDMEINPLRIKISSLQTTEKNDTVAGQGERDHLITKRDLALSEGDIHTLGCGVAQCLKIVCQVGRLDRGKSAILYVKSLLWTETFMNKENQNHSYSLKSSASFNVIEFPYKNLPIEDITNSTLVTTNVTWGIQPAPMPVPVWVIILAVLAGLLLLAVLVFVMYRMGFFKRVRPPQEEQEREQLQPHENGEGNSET
integrin αvβ3, UniProt P05106, 27-788, chain 2 of 2: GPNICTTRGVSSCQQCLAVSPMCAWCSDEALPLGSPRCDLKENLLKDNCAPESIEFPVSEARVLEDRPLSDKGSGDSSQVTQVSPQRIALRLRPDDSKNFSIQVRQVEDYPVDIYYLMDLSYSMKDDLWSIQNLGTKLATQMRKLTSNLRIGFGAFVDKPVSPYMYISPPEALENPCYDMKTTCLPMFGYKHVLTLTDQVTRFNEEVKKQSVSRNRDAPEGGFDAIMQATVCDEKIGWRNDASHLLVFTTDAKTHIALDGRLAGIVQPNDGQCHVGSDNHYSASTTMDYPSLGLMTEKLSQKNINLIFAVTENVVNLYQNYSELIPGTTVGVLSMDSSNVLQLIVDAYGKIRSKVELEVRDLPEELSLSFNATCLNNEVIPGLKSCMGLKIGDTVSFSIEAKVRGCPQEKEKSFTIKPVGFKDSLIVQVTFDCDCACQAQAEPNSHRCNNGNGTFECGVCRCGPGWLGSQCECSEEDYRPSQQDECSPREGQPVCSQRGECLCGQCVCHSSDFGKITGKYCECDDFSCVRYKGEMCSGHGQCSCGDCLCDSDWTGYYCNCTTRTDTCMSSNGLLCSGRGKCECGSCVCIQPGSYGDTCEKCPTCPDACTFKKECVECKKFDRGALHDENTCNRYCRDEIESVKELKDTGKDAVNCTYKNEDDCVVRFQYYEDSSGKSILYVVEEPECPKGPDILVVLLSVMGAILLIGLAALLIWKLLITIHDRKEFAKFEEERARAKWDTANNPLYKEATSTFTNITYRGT

According to US20100015058A1 (STANFORD UNIVERSITY, published 2010):

Target: T1, integrin αvβ3 (human, UniProt P06756 31-1048; P05106 27-788)
T1 construct: whole, on cells; Endogenous receptor on U87MG human glioblastoma cells in the IC50 assays; also called integrin alpha v beta 3; human integrin αvβ3
Experiment: competitive binding with ^125I-c(RGDyK) on U87MG cells

IC50: 0.0226 µM
B1: NOTA-RGD-BBN (VII) (peptide)
peptide 1: RGDYK
peptide 2: EQWAVGHLM
modifications: NOTA (from p-SCN-Bn-NOTA, SCN-amine reaction) on the amine of RGD-BBN; Aca between Glu and Gln; C-terminal amide (Met-NH2); cyclic (cyclo); D-Tyr at position 4; Lys side chain joined to the Glu …
notes: also called NOTA-RGD-bombesin; ^64Cu-NOTA-RGD-BBN
